Test results reported in publication PMC8585037 (International Journal of Molecular Sciences, 2021).

Sequences of proteins named here, by UniProt entry; tags and fusion partners are left off. Residues count along the entry.
UniProt Q63380, 1-617: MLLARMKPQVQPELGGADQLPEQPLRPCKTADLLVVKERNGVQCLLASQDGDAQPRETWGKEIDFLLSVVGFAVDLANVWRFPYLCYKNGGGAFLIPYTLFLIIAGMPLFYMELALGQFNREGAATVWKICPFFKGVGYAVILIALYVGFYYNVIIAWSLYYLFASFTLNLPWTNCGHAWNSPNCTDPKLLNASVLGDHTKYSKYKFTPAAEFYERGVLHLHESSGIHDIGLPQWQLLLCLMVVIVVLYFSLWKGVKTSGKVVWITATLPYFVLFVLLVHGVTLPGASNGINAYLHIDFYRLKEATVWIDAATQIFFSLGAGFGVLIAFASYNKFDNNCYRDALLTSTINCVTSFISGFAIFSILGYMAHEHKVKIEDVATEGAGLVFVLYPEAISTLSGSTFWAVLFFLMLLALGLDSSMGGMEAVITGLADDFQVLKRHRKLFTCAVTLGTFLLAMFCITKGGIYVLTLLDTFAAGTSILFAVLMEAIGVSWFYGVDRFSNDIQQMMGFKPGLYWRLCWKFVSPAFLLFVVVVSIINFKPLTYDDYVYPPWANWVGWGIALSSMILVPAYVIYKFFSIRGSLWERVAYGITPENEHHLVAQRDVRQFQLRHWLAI
UniProt P31652, whole entry: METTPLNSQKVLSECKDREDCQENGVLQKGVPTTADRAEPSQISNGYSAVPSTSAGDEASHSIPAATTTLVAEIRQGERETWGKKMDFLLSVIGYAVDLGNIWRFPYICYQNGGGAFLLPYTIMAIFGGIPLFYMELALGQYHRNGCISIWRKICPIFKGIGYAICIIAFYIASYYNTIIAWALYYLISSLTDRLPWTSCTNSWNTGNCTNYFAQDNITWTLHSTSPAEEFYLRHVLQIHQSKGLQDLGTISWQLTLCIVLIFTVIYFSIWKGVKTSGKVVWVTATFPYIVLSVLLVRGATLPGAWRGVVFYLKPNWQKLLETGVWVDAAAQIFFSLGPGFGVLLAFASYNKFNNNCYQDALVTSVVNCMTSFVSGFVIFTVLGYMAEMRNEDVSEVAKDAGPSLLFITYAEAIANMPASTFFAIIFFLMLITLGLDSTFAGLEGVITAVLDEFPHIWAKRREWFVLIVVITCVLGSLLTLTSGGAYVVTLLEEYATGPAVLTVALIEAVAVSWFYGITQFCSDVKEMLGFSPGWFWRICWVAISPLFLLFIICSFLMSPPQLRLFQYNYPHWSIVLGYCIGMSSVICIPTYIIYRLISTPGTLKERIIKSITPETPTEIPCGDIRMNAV

Experiments:
[1] = target: T1, NET (Rattus norvegicus, UniProt Q63380); assay: Synaptosomal uptake of [3H]NE in rat brain synaptosomes; format: biochemical
T1 construct: Synaptosomes from rat cerebrum were isolated as described by Bogen et al; from tissue; host or cells: rat cerebrum synaptosomes

[2] = target: T2, SERT (Rattus norvegicus, UniProt P31652); assay: Synaptosomal uptake of [3H]5-HT in rat brain synaptosomes; format: biochemical; details: IC50 Synaptosomes [3H]5-HT Uptake via SERT
T2 construct: Synaptosomes from rat cerebrum were isolated as described by Bogen et al; from tissue; host or cells: rat cerebrum synaptosomes

[3] = test system: DA, 3-MT, DOPAC, 5-HT and 5-HIAA in dorsal striatum and nucleus accumbens; assay: Neurotransmitter and metabolite concentrations in post-mortem mouse brain tissue; format: in vivo; details: 20 min after 12.5 mg/kg i.p.

Work on `CN[C@@H](C)Cc1ccccc1` [methamphetamine] yielded an IC50 [1] of 0.08 µM, an IC50 [2] of 4.9 ± 0.39 µM and a 3-MT concentration ([3]; Dorsal Striatum) of 5.9 ± 0.6 nmol/g. For the same compound, the 5-HT concentration ([3]; Dorsal Striatum) was 1.8 ± 0.2 nmol/g, the DA concentration ([3]; Dorsal Striatum) was 109.6 ± 19.4 nmol/g and the 3-MT concentration ([3]; Nucleus Accumbens) was 2.9 ± 0.4 nmol/g. For the same compound, the 5-HT concentration ([3]; Nucleus Accumbens) was 5.6 ± 1.4 nmol/g and the DA concentration ([3]; Nucleus Accumbens) was 54.6 ± 10.4 nmol/g.
